From patent publication US20040110170A1, “Cloning and characterization of calcitonin gene related peptide receptors” (priority 2002, published 2004)

Assays:
[1] = system: NIH/3T3 untransfected control cells; experiment: Radioligand Binding Inhibition assay (125I-CGRP), untransfected control cells; details: untransfected NIH/3T3 control cells
[2] = system: NIH/3T3 untransfected control cells; experiment: Adenylate Cyclase Stimulation assay (cAMP), untransfected control cells; format: cell-based; details: untransfected NIH/3T3 control cells
Experimental: The cells were washed with 1 ml of a nutrient deficient DMEM solution (Gibco-BRL, Gaithersburg, Md.) to remove excess radioisotope and incubated for 10 minutes (37° Celsius). The wash solution was removed and 500 μL of a DMEM solution containing 1 mg/ml BSA and 2.5 mM 3-isobutyl, 1-methylxanthine (IBMX) was added to each well. Peptide was added in 5 μL aliquots to 21 of the 24 wells with three receiving no peptide to serve as a baseline for stimulation. The remaining 21 wells were incubated at 37° Celsius with increasing concentrations of the indicated peptide and the response was measured. Following a one hour incubation, each well received 100 μL of a 2% SDS, 1 mM cAMP solution to lyse the cells. cAMP was assayed by consecutive Dowex AG-50W-X4 resin (BioRad, Richmond, Calif.) and aluminum oxide (Sigma, St. Louis, Mo.) column chromatography. Finally, 4 mL of a 10% imidazole solution eluted the contents into scintillation vials where (^3H) cAMP was measured using a Beckman Liquid Scintillation Counter (Fullerton, Calif.).

CC(C)C[C@H](NC(=O)CNC(=O)[C@H](C)NC(=O)[C@H](CC(C)C)NC(=O)[C@H](CCCNC(=N)N)NC(=O)[C@H](Cc1c[nH]cn1)NC(=O)[C@@H](NC(=O)[C@@H](NC(=O)[C@@H]1CSSC[C@H](NC(=O)[C@H](C)N)C(=O)N[C@@H](CC(=O)O)C(=O)N[C@@H]([C@@H](C)O)C(=O)N[C@@H](C)C(=O)N[C@@H]([C@@H](C)O)C(=O)N1)C(C)C)[C@@H](C)O)C(=O)N[C@@H](CC(C)C)C(=O)N[C@@H](CO)C(=O)N[C@@H](CCCNC(=N)N)C(=O)N[C@@H](CO)C(=O)NCC(=O)NCC(=O)N[C@H](C(=O)N[C@H](C(=O)N[C@@H](CCCCN)C(=O)N[C@@H](CC(N)=O)C(=O)N[C@@H](CC(N)=O)C(=O)N[C@@H](Cc1ccccc1)C(=O)N[C@H](C(=O)N1CCC[C@H]1C(=O)N[C@H](C(=O)N[C@@H](CC(N)=O)C(=O)N[C@H](C(=O)NCC(=O)N[C@@H](CO)C(=O)N[C@@H](CCCCN)C(=O)N[C@@H](C)C(=O)N[C@@H](Cc1ccccc1)C(N)=O)C(C)C)[C@@H](C)O)C(C)C)C(C)C)C(C)C [CGRP] was tested, and the “inhibition of 125I-CGRP binding” value [1] was “lack of binding inhibition” and the cAMP stimulation [2] was “lack of cAMP stimulation”.
